## Antibody variant affinities, Ab-14 light chain, assay B

Target: peptide PDVDLGDISGINAS, taken from heptad repeat 2 (HR2) of SARS-CoV-2 spike.

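The parent was found by panning a naive human phage display library on the peptide. Designed CDR sequences, proposed from the first random library and measured here. Group labels follow the data file (Ctrl: baseline library sampled from a position-specific scoring matrix, with some repeated check sequences; Rand: our label for a block that the file lists under HC and that is probably the random mutants of the ten best first-round binders; En: ensemble of fine-tuned language models; GP: Gaussian process model; HC: hill climbing; Gen: genetic algorithm; Gibbs: Gibbs sampling; a sequence that several methods proposed may carry one label only). The scFvs were displayed on barcoded MATa yeast, the peptide on MATalpha yeast. The frequency of each diploid, read from paired DNA barcodes, reflects how well the two displayed proteins bind. Scores were corrected for input abundance and mapped to Kd with protein pairs of known affinity run in the same pool. Mating was done six times.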

Parent scFv Ab-14: VH joined to VL by a (GGGGS)3 linker. Changes lie in the light chain CDRs alone.
VH: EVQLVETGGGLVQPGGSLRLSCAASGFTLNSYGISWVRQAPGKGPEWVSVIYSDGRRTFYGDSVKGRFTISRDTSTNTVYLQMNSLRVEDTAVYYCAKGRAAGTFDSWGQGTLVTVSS
VL: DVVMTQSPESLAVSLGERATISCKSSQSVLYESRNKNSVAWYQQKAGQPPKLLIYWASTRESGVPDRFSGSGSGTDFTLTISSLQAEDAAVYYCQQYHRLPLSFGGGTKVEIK

Each variant is given by its three light chain CDRs, as the data file delimits them; those of the parent are KSSQSVLYESRNKNSVA, WASTRES, QQYHRLPLS.
Kd is apparent (estimated from mating counts) and averaged on the log scale over replicates with a signal. Smaller is tighter.
A pair that was not seen in any replicate is written "nd"; this usually means weak binding, but a binder can also be missed.
A sequence measured in both rounds can read differently, since the two assays cover different ranges.

{"CDR-L1": "KLSQQWLYESRNKNSVA", "CDR-L2": "GASTRED", "CDR-L3": "QQYHRLPLS", "group": "GP_HC", "Kd": "440 pM", "seen in": "6 of 6", "control signals": "0 of 18"}
{"CDR-L1": "KSSQSVEYESRNKNSVA", "CDR-L2": "GASTRED", "CDR-L3": "QQYHRLPLS", "group": "Ctrl", "Kd": "870 pM", "seen in": "6 of 6", "control signals": "0 of 18"}
{"CDR-L1": "ESSQSVLFESRNKNSVA", "CDR-L2": "DACTRES", "CDR-L3": "QQYHRLPLS", "group": "Rand", "Kd": "3.0 nM", "seen in": "6 of 6", "control signals": "3 of 18"}
{"CDR-L1": "KSSQSWLFESLNKNNVA", "CDR-L2": "WGSTRES", "CDR-L3": "QQYHRLPLG", "group": "Ctrl", "Kd": "7.3 nM", "seen in": "5 of 6", "control signals": "0 of 18"}
{"CDR-L1": "KVSQSMPYESRNKNSVA", "CDR-L2": "NASQRES", "CDR-L3": "QQYHRLPLS", "group": "GP_Gen", "Kd": "650 pM", "seen in": "6 of 6", "control signals": "2 of 18"}
{"CDR-L1": "KMSQSVLGLDRNWNNVA", "CDR-L2": "YASTREM", "CDR-L3": "QQYHRLPLS", "group": "GP_Gibbs", "Kd": "2.2 nM", "seen in": "6 of 6", "control signals": "0 of 18"}
{"CDR-L1": "KLCQSVLYESRNKNSVA", "CDR-L2": "HASTRED", "CDR-L3": "QQYHRLPLM", "group": "GP_HC", "Kd": "1.7 nM", "seen in": "6 of 6", "control signals": "0 of 18"}
{"CDR-L1": "KSSQSKLYESRNKNSVA", "CDR-L2": "NASTRES", "CDR-L3": "QQYHRLPLS", "group": "Ctrl", "Kd": "nd", "seen in": "0 of 6", "control signals": "0 of 18"}
{"CDR-L1": "KVLQSVLYESRNKNSVA", "CDR-L2": "NASQRES", "CDR-L3": "QQYHRLPLS", "group": "GP_Gen", "Kd": "1.0 nM", "seen in": "6 of 6", "control signals": "0 of 18"}
{"CDR-L1": "KSWWSVLYESNNKNSVA", "CDR-L2": "HASTRED", "CDR-L3": "QQYHRLPLS", "group": "GP_HC", "Kd": "28 nM", "seen in": "6 of 6", "control signals": "0 of 18"}
{"CDR-L1": "NMSQSWLYESRNKNSVA", "CDR-L2": "GGNTRES", "CDR-L3": "QQYHRLPLS", "group": "GP_HC", "Kd": "1.3 nM", "seen in": "6 of 6", "control signals": "3 of 18"}
{"CDR-L1": "KVSQSVLYEDRNSNSVA", "CDR-L2": "NASTRES", "CDR-L3": "QQYHRLPLS", "group": "GP_Gen", "Kd": "1.3 nM", "seen in": "6 of 6", "control signals": "1 of 18"}
{"CDR-L1": "KSSQSVLYESRNKNSVA", "CDR-L2": "GASKRPS", "CDR-L3": "QQYHRLPLS", "group": "Ctrl", "Kd": "nd", "seen in": "0 of 6", "control signals": "1 of 18"}
{"CDR-L1": "KLYQATAMTSRMKNNVA", "CDR-L2": "DLNERER", "CDR-L3": "QQYFRLPLS", "group": "En_HC", "Kd": "2.3 nM", "seen in": "6 of 6", "control signals": "2 of 18"}
{"CDR-L1": "KSSQSVLYQSRNKNSIA", "CDR-L2": "NASTRES", "CDR-L3": "QQYFILPLS", "group": "Ctrl", "Kd": "2.6 nM", "seen in": "6 of 6", "control signals": "0 of 18"}
{"CDR-L1": "KSSQSVLTESNNKNSVA", "CDR-L2": "WASTRES", "CDR-L3": "QQYHRLPLS", "group": "Ctrl", "Kd": "2.4 nM", "seen in": "6 of 6", "control signals": "1 of 18"}
{"CDR-L1": "SYSQSVLYESRNKNSVA", "CDR-L2": "WGSTRNS", "CDR-L3": "QQYHRLPLS", "group": "Ctrl", "Kd": "7.6 nM", "seen in": "6 of 6", "control signals": "0 of 18"}
{"CDR-L1": "KSSQSVMYESRNKNSVA", "CDR-L2": "EASTRES", "CDR-L3": "QQYHRLPLS", "group": "GP_Gen", "Kd": "nd", "seen in": "0 of 6", "control signals": "0 of 18"}
{"CDR-L1": "KVSGFMRGLMMRKDSIA", "CDR-L2": "DNETRES", "CDR-L3": "QQYDRLPLS", "group": "En_Gen", "Kd": "36 nM", "seen in": "6 of 6", "control signals": "2 of 18"}
{"CDR-L1": "KLEQSELYESRNKNSVA", "CDR-L2": "NASTRLS", "CDR-L3": "QQYHRLPLS", "group": "GP_Gen", "Kd": "770 pM", "seen in": "6 of 6", "control signals": "1 of 18"}
{"CDR-L1": "KIGMTLNQLLHKKNNVA", "CDR-L2": "DLVEREN", "CDR-L3": "QQYFRLPLS", "group": "En_Gen", "Kd": "4.9 nM", "seen in": "6 of 6", "control signals": "1 of 18"}
{"CDR-L1": "MISQTFLIGMKAKNSVA", "CDR-L2": "QTNTREE", "CDR-L3": "QQYDRLPLI", "group": "En_HC", "Kd": "2.5 nM", "seen in": "6 of 6", "control signals": "0 of 18"}
{"CDR-L1": "KSSQSVLYESQNKNSVA", "CDR-L2": "WAMTRES", "CDR-L3": "QQYHRLPLS", "group": "Ctrl", "Kd": "35 nM", "seen in": "1 of 6", "control signals": "0 of 18"}
{"CDR-L1": "KLQQSELYESRNKNSVA", "CDR-L2": "EASTRED", "CDR-L3": "QQYHRLPLS", "group": "GP_Gen", "Kd": "3.2 nM", "seen in": "6 of 6", "control signals": "0 of 18"}
{"CDR-L1": "KSSQSVLYESENKNSVA", "CDR-L2": "GASTRES", "CDR-L3": "QSYHRLPLS", "group": "Ctrl", "Kd": "2.8 nM", "seen in": "6 of 6", "control signals": "1 of 18"}
{"CDR-L1": "KFEQLWGQEQRNKNSVA", "CDR-L2": "NASQRED", "CDR-L3": "QQYHRLPLS", "group": "GP_Gibbs", "Kd": "680 pM", "seen in": "6 of 6", "control signals": "3 of 18"}
{"CDR-L1": "KISMLLNMTFQMSNNVA", "CDR-L2": "EMATREK", "CDR-L3": "QQYNRLPLS", "group": "En_Gen", "Kd": "9.6 nM", "seen in": "6 of 6", "control signals": "0 of 18"}
{"CDR-L1": "EIEILGEEVTQHYSNVA", "CDR-L2": "EQHVTDM", "CDR-L3": "QQYFRLPLS", "group": "En_Gibbs", "Kd": "7.1 nM", "seen in": "1 of 6", "control signals": "0 of 18"}

Excerpt, the final 3 entries:

CDR-L1,CDR-L2,CDR-L3,group,Kd,seen in,control signals
KFEQLWGQEQRNKNSVA,NASQRED,QQYHRLPLS,GP_Gibbs,680 pM,6 of 6,3 of 18
KISMLLNMTFQMSNNVA,EMATREK,QQYNRLPLS,En_Gen,9.6 nM,6 of 6,0 of 18
EIEILGEEVTQHYSNVA,EQHVTDM,QQYFRLPLS,En_Gibbs,7.1 nM,1 of 6,0 of 18

The parent sequence was in this pool as ten entries: three were never detected, three once, and four in most replicates, with averages from 2.2 nM to 240 nM.
Empty control strains, which show no peptide, gave a signal in 4% of pairings with all light chain designs; the median was 430 nM and 95% of these signals were weaker than 38 nM. No background was subtracted. The control count says in how many pairings with the empty strains this scFv gave a signal.
The authors' rule: three or more of the six replicates give a measured affinity, fewer mean a poor binder.

Source: Li et al. 2023 (doi:10.1038/s41467-023-39022-2), MIT Lincoln Laboratory and A-Alpha Bio; data file from the FLAb repository.